# Assay results as given in ChEMBL document CHEMBL3244195, “Antidotes or organophosphate poisoning. 2. Thiadiazole-5-carboxaldoximes” (1979).
# Key:
# [1] = Dissociation constant, pKa of the compound
# Mus musculus [2] = assay: Toxicity in hybrid CC57 mouse assessed as mortality at 1000 mg/kg, ip after 24 hrs; conditions: in vivo
# [3] = Solubility of the compound in water; conditions: buffer
# Rattus norvegicus [4] = assay: Half life in WAG rat blood at 50 mg/kg, iv by spectrophotometric analysis; conditions: in vivo, strain WAG
# Mus musculus [5] = assay: Half life in hybrid CC57 mouse blood at 50 mg/kg, iv by spectrophotometric analysis; conditions: in vivo, strain CC57, Blood
# Oryctolagus cuniculus [6] = assay: Half life in Flemish Giant rabbit blood at 50 mg/kg, iv by spectrophotometric analysis; conditions: in vivo, strain Flemish Giant
# [7] = Dissociation constant, pKa of the compound in 0.1 M aqueous KCl at 25 degC by potentiometric titration analysis; conditions: buffer
# Mus musculus [8] = assay: Half life in hybrid CC57 mouse blood at 25 mg/kg, iv by spectrophotometric analysis; conditions: in vivo, strain CC57, Blood
# Cavia porcellus [9] = assay: Half life in guinea pig blood at 25 mg/kg, iv by spectrophotometric analysis; conditions: in vivo
# Rattus norvegicus [10] = assay: Half life in WAG rat blood at 25 mg/kg, iv by spectrophotometric analysis; conditions: in vivo, strain WAG
# Oryctolagus cuniculus [11] = assay: Half life in Flemish Giant rabbit blood at 25 mg/kg, iv by spectrophotometric analysis; conditions: in vivo, strain Flemish Giant
# [12] = Half life in goat blood at 25 mg/kg, iv by spectrophotometric analysis; conditions: in vivo
# Blood [13] = assay: Drug level in hybrid CC57 mouse blood at 100 mg/kg, po after 30 mins; conditions: in vivo, 0.5 h, strain CC57, Blood
# Blood [14] = assay: Drug level in hybrid CC57 mouse blood at 100 mg/kg, po after 60 mins; conditions: in vivo, 1 h, strain CC57, Blood
# Blood [15] = assay: Drug level in WAG rat blood at 100 mg/kg, po after 60 mins; conditions: in vivo, 1 h, strain WAG
# Blood [16] = assay: Drug level in hybrid CC57 mouse blood at 100 mg/kg, po after 15 mins; conditions: in vivo, 0.25 h, strain CC57, Blood
# Blood [17] = assay: Drug level in WAG rat blood at 100 mg/kg, po after 15 mins; conditions: in vivo, 0.25 h, strain WAG
# Blood [18] = assay: Drug level in WAG rat blood at 100 mg/kg, po after 30 mins; conditions: in vivo, 0.5 h, strain WAG
# [19] = Drug metabolism in Flemish Giant rabbit urine at 125 mg/kg, iv after 24 hrs by mass spectrometric analysis; conditions: in vivo, strain Flemish Giant
# [20] = Drug excretion in Flemish Giant rabbit urine assessed as unchanged compound level at 125 mg/kg, iv after 24 hrs by RP-HPLC analysis; conditions: in vivo, strain Flemish Giant
# Cavia porcellus [21] = assay: Half life in guinea pig blood at 50 mg/kg, iv by spectrophotometric analysis; conditions: in vivo
# Rattus norvegicus [22] = assay: Toxicity in WAG rat assessed as mortality at 400 mg/kg, ip after 24 hrs; conditions: in vivo
# Oryctolagus cuniculus [23] = assay: Half life in Flemish Giant rabbit blood at 100 mg/kg, iv by spectrophotometric analysis; conditions: in vivo, strain Flemish Giant
# Rattus norvegicus [24] = assay: Half life in WAG rat blood at 50 mg/kg, iv by HPLC analysis; conditions: in vivo, strain WAG
# Mus musculus [25] = assay: Toxicity in ip dosed hybrid CC57 mouse after 24 hrs; conditions: in vivo
# [26] = Half life in goat blood at 50 mg/kg, iv by spectrophotometric analysis; conditions: in vivo
# Rattus norvegicus [27] = assay: Elimination half life in WAG rat at 100 mg/kg, po; conditions: in vivo
# Mus musculus [28] = assay: Elimination half life in hybrid CC57 mouse at 100 mg/kg, po; conditions: in vivo
compound,measurement,setting,value
O/N=C/c1ccns1,pKa,[1],8.6
Cc1nsc(/C=N/[O-])n1.[Na+],Activity,Mus musculus [2],Non-toxic
same,solubility,[3],soluble
same,t1/2,Rattus norvegicus [4],7.7 min
same,t1/2,Mus musculus [5],7 min
same,t1/2,Oryctolagus cuniculus [6],13.9 min
Cc1nnc(/C=N/[O-])s1.[Na+],Activity,Mus musculus [2],Non-toxic
same,solubility,[3],soluble
same,t1/2,Rattus norvegicus [4],17 min
same,t1/2,Mus musculus [5],10.4 min
same,t1/2,Oryctolagus cuniculus [6],27.7 min
Cc1nnc(/C=N/O)s1,pKa,[7],8.4
O/N=C/C(F)(F)F,pKa,[1],8.9
O/N=C/c1cnns1,pKa,[7],7.64
O/N=C/c1cc[n+](COC[n+]2ccc(/C=N/O)cc2)cc1.[Cl-].[Cl-],t1/2,Mus musculus [8],9.5 min
same,t1/2,Cavia porcellus [9],25 min
same,t1/2,Rattus norvegicus [10],15.4 min
same,t1/2,Oryctolagus cuniculus [11],32.3 min
same,t1/2,[12],39.9 min
CS(=O)(=O)[O-].C[n+]1ccccc1C=NO,Drug uptake,Blood [13],4800 ng/mL
same,Drug uptake,Blood [14],4500 ng/mL
same,Drug uptake,Blood [15],4100 ng/mL
same,Drug uptake,Blood [16],3200 ng/mL
same,Drug uptake,Blood [17],1600 ng/mL
same,Drug uptake,Blood [18],3900 ng/mL
[Na+].[O-]/N=C/c1cnns1,solubility,[3],soluble
same,Drug metabolism,[19],metabolite_detected
same,Drug uptake,Blood [13],23600 ng/mL
same,t1/2,Rattus norvegicus [4],19.9 min
same,Drug uptake,Blood [14],6900 ng/mL
same,Drug excretion,[20],0.2%
same,Drug uptake,Blood [15],8400 ng/mL
same,t1/2,Mus musculus [5],9.5 min
same,t1/2,Cavia porcellus [21],20.9 min
same,t1/2,Oryctolagus cuniculus [6],26.2 min
same,Drug uptake,Blood [16],31100 ng/mL
same,Activity,Rattus norvegicus [22],Non-toxic
same,t1/2,Oryctolagus cuniculus [23],24.4 min
same,t1/2,Rattus norvegicus [24],19.6 min
same,LD50,Mus musculus [25],1250 mg/kg
same,t1/2,[26],38.6 min
same,Drug uptake,Blood [17],22900 ng/mL
same,beta t1/2,Rattus norvegicus [27],21 min
same,Drug uptake,Blood [18],22100 ng/mL
same,beta t1/2,Mus musculus [28],21 min
Cc1nsc(/C=N/O)n1,pKa,[7],6.97
